# From PubChem BioAssay AID488890 (Southern Research Specialized Biocontainment Screening …, 2010)
# The list shows a part of the results, in another mix than the full data. Inconclusive results are not listed. The rule behind the calls is not given here.
# Test: growth inhibition of non-replicating M. tuberculosis (AID 488890);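 note: plate controls were DMSO cells for no effect and high antibiotic wells for full effect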
# Settings: Mycobacterium tuberculosis non-replicating, at 25 µM, stronger effect = higher value
row,Compound,inhibition [%]
1,CCC(=O)N(c1ccccc1)C1(COC)CCN(CCn2nnn(CC)c2=O)CC1,-7.91
2,CCC(=O)N(c1ccccc1)C1(COC)CCN(CCc2cccs2)CC1,-12.9
